ChEMBL document CHEMBL1136781, “Comparison of in vitro P-glycoprotein screening assays: recommendations for their use in drug discovery” (J Med Chem, 2003)

Amino acid sequences for entries named in this document (tags omitted).
UniProt P08183, whole entry: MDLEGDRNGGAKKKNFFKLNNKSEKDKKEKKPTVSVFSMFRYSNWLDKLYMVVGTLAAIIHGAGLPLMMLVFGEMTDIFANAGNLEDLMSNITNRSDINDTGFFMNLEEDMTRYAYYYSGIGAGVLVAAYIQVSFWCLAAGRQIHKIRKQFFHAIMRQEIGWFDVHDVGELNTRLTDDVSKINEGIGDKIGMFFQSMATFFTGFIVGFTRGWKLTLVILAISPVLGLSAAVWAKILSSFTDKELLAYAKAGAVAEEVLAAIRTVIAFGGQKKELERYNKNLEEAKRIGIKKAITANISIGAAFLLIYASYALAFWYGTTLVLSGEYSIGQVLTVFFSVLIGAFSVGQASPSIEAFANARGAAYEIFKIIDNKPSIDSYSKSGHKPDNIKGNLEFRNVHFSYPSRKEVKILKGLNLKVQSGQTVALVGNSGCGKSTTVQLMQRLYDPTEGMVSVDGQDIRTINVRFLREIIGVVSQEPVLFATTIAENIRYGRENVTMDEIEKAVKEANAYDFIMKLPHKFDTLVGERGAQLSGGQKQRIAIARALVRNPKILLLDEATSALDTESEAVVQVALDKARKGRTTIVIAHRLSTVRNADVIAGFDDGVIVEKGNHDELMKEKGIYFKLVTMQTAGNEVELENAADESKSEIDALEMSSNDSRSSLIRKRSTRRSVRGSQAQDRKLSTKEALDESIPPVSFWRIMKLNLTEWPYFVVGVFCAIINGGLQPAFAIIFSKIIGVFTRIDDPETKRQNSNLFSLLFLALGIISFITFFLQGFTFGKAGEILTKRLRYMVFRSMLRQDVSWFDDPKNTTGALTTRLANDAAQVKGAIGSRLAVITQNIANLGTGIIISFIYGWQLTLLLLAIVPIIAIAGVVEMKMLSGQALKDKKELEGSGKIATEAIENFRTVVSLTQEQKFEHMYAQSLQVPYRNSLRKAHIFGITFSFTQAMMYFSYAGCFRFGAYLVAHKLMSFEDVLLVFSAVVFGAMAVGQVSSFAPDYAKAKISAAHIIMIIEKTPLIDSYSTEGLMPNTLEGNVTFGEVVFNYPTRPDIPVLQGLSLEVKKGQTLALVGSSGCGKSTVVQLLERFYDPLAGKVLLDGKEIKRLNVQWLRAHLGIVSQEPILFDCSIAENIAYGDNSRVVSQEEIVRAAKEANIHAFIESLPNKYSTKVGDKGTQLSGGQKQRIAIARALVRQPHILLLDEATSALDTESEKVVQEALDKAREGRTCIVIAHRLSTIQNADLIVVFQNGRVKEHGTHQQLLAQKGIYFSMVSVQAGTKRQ

Legend:
[1] = target: T1, ATP-dependent translocase ABCB1 (Homo sapiens, UniProt P08183); assay: Inhibition of P-glycoprotein, human L-MDR1 expressed in LLC-PK1 epithelial cells using calcein-AM polarisation assay; type: functional, cell-based
[2] = target: T1, ATP-dependent translocase ABCB1; assay: TP_TRANSPORTER: inhibition of Calcein-AM efflux in MDR1-expressing LLC-PK1 cells; type: functional, cell-based

IC50 [1]: 2.3 µM
IC50 [2]: 2.3 µM
SMILES: COC(=O)C1=C(C)NC(C)=C(C(=O)OCCN(C)Cc2ccccc2)C1c1cccc([N+](=O)[O-])c1 (configuration not stated) [NICARDIPINE]
